{"sequences": {"note": "Sequences of proteins named here, by UniProt entry; tags and fusion partners are left off. Residues count along the entry.", "UniProt O75417, 1780-2590": "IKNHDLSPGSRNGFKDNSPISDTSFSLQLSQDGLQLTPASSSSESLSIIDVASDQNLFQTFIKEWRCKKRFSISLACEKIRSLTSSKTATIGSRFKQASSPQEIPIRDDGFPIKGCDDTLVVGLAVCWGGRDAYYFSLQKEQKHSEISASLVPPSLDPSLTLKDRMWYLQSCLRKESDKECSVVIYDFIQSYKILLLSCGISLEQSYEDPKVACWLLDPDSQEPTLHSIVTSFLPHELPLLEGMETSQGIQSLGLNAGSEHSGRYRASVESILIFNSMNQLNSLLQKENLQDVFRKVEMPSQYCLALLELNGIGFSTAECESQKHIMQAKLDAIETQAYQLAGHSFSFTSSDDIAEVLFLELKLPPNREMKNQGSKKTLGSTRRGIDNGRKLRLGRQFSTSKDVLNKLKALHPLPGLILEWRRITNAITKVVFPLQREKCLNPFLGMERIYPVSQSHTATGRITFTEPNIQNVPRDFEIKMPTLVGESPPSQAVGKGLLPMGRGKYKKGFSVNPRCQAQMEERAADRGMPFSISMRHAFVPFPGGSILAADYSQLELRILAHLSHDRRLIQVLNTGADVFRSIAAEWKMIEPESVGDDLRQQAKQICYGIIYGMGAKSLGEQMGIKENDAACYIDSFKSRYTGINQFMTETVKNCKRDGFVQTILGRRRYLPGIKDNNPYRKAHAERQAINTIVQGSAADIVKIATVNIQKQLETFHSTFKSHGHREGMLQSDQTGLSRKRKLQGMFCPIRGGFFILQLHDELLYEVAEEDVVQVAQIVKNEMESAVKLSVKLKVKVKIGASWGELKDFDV"}, "source": "patent US20250195530A1", "about": "“POLQ INHIBITORS” (ASTRAZENECA AB, priority 2022, published 2025)", "molecular_target": "isolated polymerase domain (I1780-V2590) of DNA polymerase theta (Polθ) (Homo sapiens (Human), UniProt O75417)", "assay": "biochemical", "data": [{"smiles": "CC(CCOc1ccc(-c2nc3c(OC4(C)CC4)ncnc3n2Cc2cccc(Cl)c2)c(Cl)c1)C(=O)O", "note": "(racemic) [Example T291, 4-(3-chloro-4-(9-(3-chlorobenzyl)-6-(1-methylcyclopropoxy)-9H-purin-8-yl)phenoxy)-2-methylbutanoic acid]", "values": [{"measurement": "IC50", "value": 6.31, "unit": "nM"}]}, {"smiles": "CC1(Oc2cccc3c2nc(-c2ccc(OCCN4CCNCC4)cc2Cl)n3Cc2cccc(Cl)c2)CCC1", "note": "[Example T611, 2-(2-chloro-4-(2-(piperazin-1-yl)ethoxy)phenyl)-1-(3-chlorobenzyl)-4-(1-methylcyclobutoxy)-1H-benzo[d]imidazole]", "values": [{"measurement": "IC50", "value": 15.8, "unit": "nM"}]}, {"smiles": "CC1(Oc2ncnc3c2nc(-c2cccc(OCCCCCC(=O)O)c2Cl)n3Cc2cccc(Cl)c2)CC1", "note": "[Example T440, 6-(2-chloro-3-(9-(3-chlorobenzyl)-6-(1-methylcyclopropoxy)-9H-purin-8-yl)phenoxy)hexanoic acid]", "values": [{"measurement": "IC50", "value": 6.31, "unit": "nM"}]}, {"smiles": "Cc1csc(Cn2c(-c3ccc(OCCN4CCNCC4)cc3Cl)nc3c(OC4(C)CC4)ncnc32)n1", "note": "[Example T248, 2-((8-(2-chloro-4-(2-(piperazin-1-yl)ethoxy)phenyl)-6-(1-methylcyclopropoxy)-9H-purin-9-yl)methyl)-4-methylthiazole]", "values": [{"measurement": "IC50", "value": 3.98, "unit": "nM"}]}, {"smiles": "CC1(Oc2ncnc3c2nc(-c2ccc(OCCN4CCNCC4)cc2Cl)n3Cc2ccnc(Cl)c2)CC1", "note": "[Example T378, 8-(2-chloro-4-(2-(piperazin-1-yl)ethoxy)phenyl)-9-((2-chloropyridin-4-yl)methyl)-6-(1-methylcyclopropoxy)-9H-purine]", "values": [{"measurement": "IC50", "value": 10, "unit": "nM"}]}, {"smiles": "Cc1ccnc(Cn2c(-c3ccc(C(=O)NCC(C)(C)O)cc3Cl)nc3c(OC4(C)CC4)ncnc32)c1", "note": "[Example T363, 3-chloro-N-(2-hydroxy-2-methylpropyl)-4-(6-(1-methylcyclopropoxy)-9-((4-methylpyridin-2-yl)methyl)-9H-purin-8-yl)benzamide]", "values": [{"measurement": "IC50", "value": 12.6, "unit": "nM"}]}, {"smiles": "COc1ncc(Cl)cc1Cn1c(-c2ccc(OCCC(C)C(=O)O)cc2Cl)nc2c(OC3(C)CC3)ncnc21", "note": "(racemic) [Example U53, 4-(3-chloro-4-(9-((5-chloro-2-methoxypyridin-3-yl)methyl)-6-(1-methylcyclopropoxy)-9H-purin-8-yl)phenoxy)-2-methylbutanoic acid]", "values": [{"measurement": "IC50", "value": 20, "unit": "nM"}]}, {"smiles": "Cc1ccnc(Cn2c(-c3ccc(C(=O)NC4CC(O)C4)cc3Cl)nc3c(OC4(C)CC4)ncnc32)c1", "note": "(centres unmarked) [Example T319, 3-chloro-N-(3-hydroxycyclobutyl)-4-(6-(1-methylcyclopropoxy)-9-((4-methylpyridin-2-yl)methyl)-9H-purin-8-yl)benzamide]", "values": [{"measurement": "IC50", "value": 7.94, "unit": "nM"}]}, {"smiles": "Cc1ccnc(Cn2c(-c3ccc(N4CC[C@H](C(N)=O)C4)cc3Cl)nc3c(OC4(C)CC4)ncnc32)c1", "note": "[Example T340, (S)-1-(3-chloro-4-(6-(1-methylcyclopropoxy)-9-((4-methylpyridin-2-yl)methyl)-9H-purin-8-yl)phenyl)pyrrolidine-3-carboxamide]", "values": [{"measurement": "IC50", "value": 7.94, "unit": "nM"}]}, {"smiles": "C[C@@H](Oc1cccc(-c2nc3c(OC4(C)CC4)ncnc3n2Cc2cccc(Cl)c2)c1Cl)C(=O)O", "note": "[Example T91, (R)-2-(2-chloro-3-(9-(3-chlorobenzyl)-6-(1-methylcyclopropoxy)-9H-purin-8-yl)phenoxy)propanoic acid]", "values": [{"measurement": "IC50", "value": 10, "unit": "nM"}]}, {"smiles": "Cc1ccnc(Cn2c(-c3ccc(OCCN4CCNC(=O)C4)cc3Cl)nc3c(OC4(C)CC4)ncnc32)c1", "note": "[Example T499, 4-(2-(3-chloro-4-(6-(1-methylcyclopropoxy)-9-((4-methylpyridin-2-yl)methyl)-9H-purin-8-yl)phenoxy)ethyl)piperazin-2-one]", "values": [{"measurement": "IC50", "value": 6.31, "unit": "nM"}]}, {"smiles": "CNC(=O)N1CC(Oc2ccc(-c3nc4c(OC5(C)CC5)ncnc4n3Cc3cc(C)ccn3)c(Cl)c2)C1", "note": "[Example T343, 3-(3-chloro-4-(6-(1-methylcyclopropoxy)-9-((4-methylpyridin-2-yl)methyl)-9H-purin-8-yl)phenoxy)-N-methylazetidine-1-carboxamide]", "values": [{"measurement": "IC50", "value": 7.94, "unit": "nM"}]}, {"smiles": "Cc1ccnc(Cn2c(-c3ccc(O[C@H]4CNC(=O)C4)cc3Cl)nc3c(OC4(C)CC4)ncnc32)c1", "note": "[Example T183, (R)-4-(3-chloro-4-(6-(1-methylcyclopropoxy)-9-((4-methylpyridin-2-yl)methyl)-9H-purin-8-yl)phenoxy)pyrrolidin-2-one]", "values": [{"measurement": "IC50", "value": 3.16, "unit": "nM"}]}, {"smiles": "Cc1ccnc(Cn2c(-c3ccc(N4CCNCC4=O)cc3Cl)nc3c(OC4(C)CC4)ncnc32)c1", "note": "[Example T202, 1-(3-chloro-4-(6-(1-methylcyclopropoxy)-9-((4-methylpyridin-2-yl)methyl)-9H-purin-8-yl)phenyl)piperazin-2-one]", "values": [{"measurement": "IC50", "value": 39.8, "unit": "nM"}]}, {"smiles": "COc1ccccc1Cn1c(-c2ccc(OCCC(C)C(=O)O)cc2Cl)nc2c(OC3(C)CC3)ncnc21", "note": "(racemic) [Example U4, 4-(3-chloro-4-(9-(2-methoxybenzyl)-6-(1-methylcyclopropoxy)-9H-purin-8-yl)phenoxy)-2-methylbutanoic acid]", "values": [{"measurement": "IC50", "value": 6.31, "unit": "nM"}]}, {"smiles": "CNC(=O)c1ccc(Cl)c(-c2nc3c(OC4(C)CC4)ncnc3n2Cc2cc(C)ccn2)c1", "note": "[Example T54, 4-chloro-N-methyl-3-(6-(1-methylcyclopropoxy)-9-((4-methylpyridin-2-yl)methyl)-9H-purin-8-yl)benzamide]", "values": [{"measurement": "IC50", "value": 398, "unit": "nM"}]}, {"smiles": "Cc1cnc(Cn2c(-c3ccc(O[C@H]4CCN(C)C4)cc3Cl)nc3c(OC4(C)CC4)ncnc32)s1", "note": "[Example T140, (S)-2-((8-(2-chloro-4-((1-methylpyrrolidin-3-yl)oxy)phenyl)-6-(1-methylcyclopropoxy)-9H-purin-9-yl)methyl)-5-methylthiazole]", "values": [{"measurement": "IC50", "value": 3.98, "unit": "nM"}]}, {"smiles": "CC1(Oc2ncnc3c2nc(-c2ccc(CC(N)=O)cc2Cl)n3Cc2cc(C(F)(F)F)ccn2)CC1", "note": "[Example T36, 2-(3-chloro-4-(6-(1-methylcyclopropoxy)-9-((4-(trifluoromethyl)pyridin-2-yl)methyl)-9H-purin-8-yl)phenyl)acetamide]", "values": [{"measurement": "IC50", "value": 7.94, "unit": "nM"}]}, {"smiles": "CC1(Oc2ncnc3c2nc(-c2ccc(OCCN4CCNCC4)cc2Cl)n3Cc2nccc(Cl)c2F)CC1", "note": "[Example T345, 9-((4-chloro-3-fluoropyridin-2-yl)methyl)-8-(2-chloro-4-(2-(piperazin-1-yl)ethoxy)phenyl)-6-(1-methylcyclopropoxy)-9H-purine]", "values": [{"measurement": "IC50", "value": 12.6, "unit": "nM"}]}, {"smiles": "Cc1ncc(Cn2c(-c3ccc(CC(N)=O)cc3Cl)nc3c(OC4(C)CC4)ncnc32)s1", "note": "[Example T5, 2-(3-chloro-4-(6-(1-methylcyclopropoxy)-9-((2-methylthiazol-5-yl)methyl)-9H-purin-8-yl)phenyl)acetamide]", "values": [{"measurement": "IC50", "value": 39.8, "unit": "nM"}]}, {"smiles": "Cc1ccnc(Cn2c(-c3ccc(C(=O)N(C)C)cc3Cl)nc3c(OC4(C)CC4)ncnc32)c1", "note": "[Example T112, 3-chloro-N,N-dimethyl-4-(6-(1-methylcyclopropoxy)-9-((4-methylpyridin-2-yl)methyl)-9H-purin-8-yl)benzamide]", "values": [{"measurement": "IC50", "value": 10, "unit": "nM"}]}, {"smiles": "CC(CCCc1ccc(-c2nc3c(OC4(C)CC4)ncnc3n2Cc2cccc(Cl)c2)c(Cl)c1)C(=O)O", "note": "(racemic) [Example T434, 5-(3-chloro-4-(9-(3-chlorobenzyl)-6-(1-methylcyclopropoxy)-9H-purin-8-yl)phenyl)-2-methylpentanoic acid]", "values": [{"measurement": "IC50", "value": 7.94, "unit": "nM"}]}, {"smiles": "Cc1ccnc(Cn2c(-c3ccc(C(=O)NC[C@H](C)O)cc3Cl)nc3c(OC4(C)CC4)ncnc32)c1", "note": "[Example T218, (S)-3-chloro-N-(2-hydroxypropyl)-4-(6-(1-methylcyclopropoxy)-9-((4-methylpyridin-2-yl)methyl)-9H-purin-8-yl)benzamide]", "values": [{"measurement": "IC50", "value": 7.94, "unit": "nM"}]}]}
